Like-named read-outs stand apart in the source and are kept apart here.
How the values were obtained:
Assay in all cases: biochemical
Format in all cases: binding
[1] = molecular target: HLA-B*4002 (Homo sapiens, UniProt P01889, A65T/A93T/A95T/D138N/D201E/D98Y/E176V/E204Q/E69K/K202T/N87E/Q56L/Q94N/R180L/S48T/Y33H/Y91S)
[2] = molecular target: HLA-B*4402 (Homo sapiens, UniProt P01889, A223V/A65T/A93T/A95T/D201E/D98Y/E176V/E187L/E204Q/E69K/G107R/H137Y/K202T/L105A/L119I/N104T/N87E/Q56L/Q94N/R106L/R155S/R180D/S101N/S121R/S35A/S48T/T118I/V36M/W191S/Y140D/Y91S)
[3] = molecular target: HLA-B*4001 (Homo sapiens, UniProt P01889, A65T/A93T/A95T/D138N/D98Y/E176V/E69K/N87E/Q56L/Q94N/R180L/S121R/S35A/S48T/T167S/V36M/W171L/Y33H/Y91S)

| Compound | IC50 ([3]; B*4001) | also measured |
| --- | --- | --- |
| CC(C)C[C@H](NC(=O)[C@H](CC(N)=O)NC(=O)[C@H](CCC(=O)O)NC(=O)[C@H](C)N)C(=O)N[C@@H](Cc1c[nH]c2ccccc12)C(=O)N[C@H](C(=O)N[C@H](C(=O)N1CCC[C@H]1C(=O)N[C@@H](Cc1ccc(O)cc1)C(=O)O)[C@@H](C)O)C(C)C | – | IC50 [1]: 0.189 µM |
| CC(C)C[C@H](NC(=O)[C@H](CC(N)=O)NC(=O)[C@H](CCC(=O)O)NC(=O)[C@H](C)N)C(=O)N[C@@H](Cc1c[nH]c2ccccc12)C(=O)N[C@H](C(=O)N[C@H](C(=O)N[C@H](C(=O)N[C@@H](CC(N)=O)C(=O)O)C(C)C)[C@@H](C)O)C(C)C | – | IC50 [1]: 0.481 µM |
| CC(C)C[C@H](NC(=O)CNC(=O)[C@H](CC(C)C)NC(=O)[C@H](Cc1ccc(O)cc1)NC(=O)[C@H](CCC(=O)O)NC(=O)[C@@H]1CCCN1C(=O)[C@H](CC(N)=O)NC(=O)[C@H](CCC(=O)O)NC(=O)[C@H](C)N)C(=O)O | 0.081 µM | IC50 ([2]; B*4402): 0.044 µM |
| CC(C)[C@H](NC(=O)CNC(=O)[C@H](CCC(=O)O)NC(=O)[C@H](C)NC(=O)[C@H](C)NC(=O)[C@@H]1CCCN1C(=O)[C@H](CCC(=O)O)NC(=O)[C@H](C)N)C(=O)NCC(=O)N[C@@H](C)C(=O)O | – | IC50 [1]: 1.66 µM |
| CSCC[C@H](NC(=O)[C@H](CCCNC(=N)N)NC(=O)[C@@H]1CCCN1C(=O)[C@H](C)NC(=O)[C@H](CCC(=O)O)NC(=O)[C@@H](N)CC(=O)O)C(=O)N1CCC[C@H]1C(=O)N[C@@H](CCC(=O)O)C(=O)N[C@@H](C)C(=O)O | 9.09 µM | – |
| CSCC[C@H](NC(=O)[C@H](CCCNC(=N)N)NC(=O)[C@@H]1CCCN1C(=O)CNC(=O)[C@H](CCC(=O)O)NC(=O)[C@H](CCC(=O)O)NC(=O)[C@@H](N)CCC(=O)O)C(=O)N[C@@H](Cc1ccccc1)C(=O)O | – | IC50 ([1]; B*4002): 32.1 µM |
| CC[C@H](C)[C@H](NC(=O)[C@H](CCCCN)NC(=O)[C@H](CCC(=O)O)NC(=O)[C@@H](N)CCC(=O)O)C(=O)N[C@@H](Cc1c[nH]c2ccccc12)C(=O)N[C@@H](CCC(=O)O)C(=O)N[C@@H](CCC(=O)O)C(=O)N[C@@H](CC(C)C)C(=O)N[C@@H](CO)C(=O)N[C@@H](CCSC)C(=O)N[C@@H](CC(C)C)C(=O)O | – | IC50 ([1]; B*4002): 20.6 µM |
| CC[C@H](C)[C@H](NC(=O)[C@H](CCCCN)NC(=O)[C@H](CCC(=O)O)NC(=O)[C@@H](N)CCC(=O)O)C(=O)N[C@@H](Cc1c[nH]c2ccccc12)C(=O)N[C@@H](CCC(=O)O)C(=O)N[C@@H](CCC(=O)O)C(=O)N[C@@H](CC(C)C)C(=O)N[C@@H](CO)C(=O)N[C@H](C(=O)N[C@@H](CC(C)C)C(=O)O)C(C)C | 0.152 µM | – |
| CSCC[C@H](NC(=O)[C@H](CO)NC(=O)[C@H](CC(C)C)NC(=O)[C@H](CCC(=O)O)NC(=O)[C@@H](N)CCC(=O)O)C(=O)N[C@@H](CC(C)C)C(=O)N[C@@H](CCC(=O)O)C(=O)N[C@H](C(=O)N[C@@H](Cc1ccccc1)C(=O)N[C@@H](CCC(=O)O)C(=O)NCC(=O)O)C(C)C | 24.1 µM | – |
| CC(C)C[C@H](NC(=O)[C@H](CCC(=O)O)NC(=O)[C@@H](N)CCC(=O)O)C(=O)N[C@@H](CO)C(=O)N[C@H](C(=O)N[C@@H](CC(C)C)C(=O)N[C@@H](CCC(=O)O)C(=O)N[C@H](C(=O)N[C@@H](Cc1ccccc1)C(=O)O)C(C)C)C(C)C | 10.2 µM | IC50 ([2]; B*4402): 0.061 µM |
| CC(C)C[C@H](NC(=O)[C@H](CCC(=O)O)NC(=O)CN)C(=O)N[C@@H](CO)C(=O)N[C@@H](Cc1ccc(O)cc1)C(=O)N[C@@H](CC(C)C)C(=O)N[C@@H](CC(N)=O)C(=O)N[C@H](C(=O)O)C(C)C | 4.86 µM | – |
| CC[C@H](C)[C@H](NC(=O)[C@@H]1CCCN1C(=O)[C@@H]1CCCN1C(=O)[C@H](CCC(N)=O)NC(=O)[C@@H]1CCCN1C(=O)[C@H](CC(C)C)NC(=O)[C@H](CCCNC(=N)N)NC(=O)[C@H](CCC(=O)O)NC(=O)CN)C(=O)N[C@@H](CS)C(=O)N[C@H](C(=O)O)[C@@H](C)O | 24.3 µM | – |
| CC[C@H](C)[C@H](NC(=O)[C@H](CCC(=O)O)NC(=O)[C@@H](N)CCCCN)C(=O)N[C@@H](CC(C)C)C(=O)N[C@@H](CC(=O)O)C(=O)N[C@@H](CCC(=O)O)C(=O)N[C@@H](C)C(=O)N[C@@H](Cc1ccc(O)cc1)C(=O)N[C@H](C(=O)O)C(C)C | – | IC50 ([1]; B*4002): 0.146 µM |
| CC[C@H](C)[C@H](NC(=O)[C@H](CO)NC(=O)[C@H](CCC(=O)O)NC(=O)[C@@H](N)CC(C)C)C(=O)N[C@@H](CC(C)C)C(=O)N[C@@H](CCCNC(=N)N)C(=O)N[C@@H](CCCNC(=N)N)C(=O)N[C@@H](CCCNC(=N)N)C(=O)N[C@@H](Cc1ccccc1)C(=O)O | > 11.9 µM | IC50 ([2]; B*4402): 0.0047 µM |
| CSCC[C@H](N)C(=O)N[C@@H](CCC(=O)O)C(=O)N[C@@H](Cc1c[nH]cn1)C(=O)N[C@@H](CC(C)C)C(=O)N[C@@H](CCCNC(=N)N)C(=O)N[C@@H](CCC(=O)O)C(=O)N[C@H](C(=O)N[C@@H](CCCNC(=N)N)C(=O)N[C@@H](C)C(=O)O)C(C)C | 44.8 µM | – |
| CSCC[C@H](N)C(=O)N[C@@H](CCC(=O)O)C(=O)N[C@@H](Cc1c[nH]cn1)C(=O)N[C@@H](CC(C)C)C(=O)N[C@@H](CCCNC(=N)N)C(=O)N[C@@H](CCC(=O)O)C(=O)N[C@H](C(=O)N[C@@H](CCCNC(=N)N)C(=O)N[C@@H](C)C(=O)N[C@H](C(=O)O)C(C)C)C(C)C | 20.7 µM | – |

| Compound | IC50 ([3]; B*4001) | also measured |
| --- | --- | --- |
| CSCC[C@H](N)C(=O)N[C@@H](CCC(=O)O)C(=O)N[C@@H](Cc1c[nH]cn1)C(=O)N[C@@H](CC(C)C)C(=O)N[C@@H](CCCNC(=N)N)C(=O)N[C@@H](CCC(=O)O)C(=O)N[C@H](C(=O)N[C@@H](CCCNC(=N)N)C(=O)N[C@@H](C)C(=O)N[C@H](C(=O)N[C@H](C(=O)O)[C@@H](C)O)C(C)C)C(C)C | 3.61 µM | – |
| CC(C)C[C@H](NC(=O)[C@H](C)NC(=O)[C@H](CCC(=O)O)NC(=O)[C@@H](N)CC(N)=O)C(=O)N[C@@H](CCC(=O)O)C(=O)N[C@@H](CC(C)C)C(=O)N[C@@H](CCCCN)C(=O)N[C@@H](CC(=O)O)C(=O)N[C@@H](C)C(=O)O | – | IC50 ([1]; B*4002): 27.6 µM |
| CC(C)C[C@H](NC(=O)[C@H](CCC(=O)O)NC(=O)[C@@H](N)CC(N)=O)C(=O)N[C@@H](CO)C(=O)N[C@H](C(=O)N[C@@H](CC(=O)O)C(=O)N[C@@H](Cc1c[nH]cn1)C(=O)N[C@@H](CO)C(=O)N[C@@H](CC(=O)O)C(=O)N1CCC[C@H]1C(=O)N[C@H](C(=O)O)C(C)C)C(C)C | 2.55 µM | – |
| CC(C)C[C@H](NC(=O)[C@H](Cc1ccc(O)cc1)NC(=O)[C@H](CCC(=O)O)NC(=O)[C@@H]1CCCN1)C(=O)N[C@H](C(=O)N1CCC[C@H]1C(=O)N[C@@H](CCC(N)=O)C(=O)NCC(=O)NCC(=O)N[C@@H](C)C(=O)N[C@@H](C)C(=O)O)[C@@H](C)O | 41 µM | IC50 ([2]; B*4402): > 17.8 µM |
| C[C@H](NC(=O)[C@H](C)NC(=O)[C@H](CCC(=O)O)NC(=O)[C@@H](N)CCC(N)=O)C(=O)N[C@@H](CO)C(=O)N[C@@H](CO)C(=O)N[C@@H](CO)C(=O)N[C@@H](CO)C(=O)N[C@H](C(=O)O)[C@@H](C)O | 23.5 µM | IC50 ([2]; B*4402): 9.59 µM |
| CSCC[C@H](NC(=O)[C@H](CCCNC(=N)N)NC(=O)[C@@H]1CCCN1C(=O)CNC(=O)[C@H](CCC(=O)O)NC(=O)[C@H](CCC(=O)O)NC(=O)[C@H](CCC(=O)O)NC(=O)[C@@H](N)CCC(N)=O)C(=O)N[C@@H](Cc1ccccc1)C(=O)O | 0.918 µM | – |
| CC(C)[C@H](NC(=O)[C@H](CCC(=O)O)NC(=O)[C@@H](N)CCC(N)=O)C(=O)N[C@H](C(=O)N[C@@H](C)C(=O)N[C@@H](CCC(=O)O)C(=O)N[C@@H](CC(=O)O)C(=O)NCC(=O)N[C@H](C(=O)O)[C@@H](C)O)[C@@H](C)O | 31.1 µM | – |
| CSCC[C@H](NC(=O)[C@H](CCCNC(=N)N)NC(=O)[C@H](CO)NC(=O)[C@H](Cc1ccccc1)NC(=O)[C@H](CCC(=O)O)NC(=O)[C@H](CO)NC(=O)[C@@H](NC(=O)[C@H](CC(C)C)NC(=O)[C@H](CCC(=O)O)NC(=O)[C@@H](N)CCCNC(=N)N)C(C)C)C(=O)N[C@@H](C)C(=O)O | 0.389 µM | – |
| CSCC[C@H](NC(=O)[C@H](CCC(=O)O)NC(=O)[C@H](C)NC(=O)[C@H](CCCCN)NC(=O)[C@@H](NC(=O)[C@@H](NC(=O)[C@@H]1CCCN1C(=O)[C@H](CCC(=O)O)NC(=O)[C@@H](N)CCCNC(=N)N)C(C)C)[C@@H](C)O)C(=O)O | 0.373 µM | – |
| CC(C)C[C@H](NC(=O)[C@@H](NC(=O)[C@H](CCCCN)NC(=O)[C@@H](NC(=O)[C@H](CCCCN)NC(=O)[C@H](CCCNC(=N)N)NC(=O)[C@H](CC(C)C)NC(=O)[C@H](CCC(=O)O)NC(=O)[C@@H](N)[C@@H](C)O)C(C)C)C(C)C)C(=O)O | – | IC50 ([1]; B*4002): 0.054 µM |
| CC(C)C[C@H](NC(=O)[C@H](CCC(=O)O)NC(=O)[C@@H](N)[C@@H](C)O)C(=O)N[C@@H](CCCNC(=N)N)C(=O)N[C@@H](CCCCN)C(=O)N[C@H](C(=O)N[C@@H](CCCCN)C(=O)N[C@H](C(=O)N[C@@H](CC(C)C)C(=O)NCC(=O)O)C(C)C)C(C)C | 20.3 µM | – |
| CC(C)C[C@H](NC(=O)[C@@H](NC(=O)[C@@H](NC(=O)[C@H](CCC(=O)O)NC(=O)[C@@H](N)C(C)C)C(C)C)[C@@H](C)O)C(=O)NCC(=O)N[C@@H](CCC(=O)O)C(=O)N[C@H](C(=O)N1CCC[C@H]1C(=O)N[C@@H](C)C(=O)N[C@@H](C)C(=O)O)C(C)C | 25.2 µM | IC50 ([2]; B*4402): > 23.5 µM |
| CC[C@H](C)[C@H](NC(=O)CNC(=O)[C@H](CS)NC(=O)[C@H](CCC(=O)O)NC(=O)[C@@H](N)Cc1ccc(O)cc1)C(=O)N[C@@H](CCC(N)=O)C(=O)N[C@@H](CC(N)=O)C(=O)N[C@@H](CCC(=O)O)C(=O)N[C@@H](CC(C)C)C(=O)N[C@@H](CO)C(=O)N[C@H](C(=O)O)C(C)C | 0.033 µM | – |
| CC(C)C[C@H](NC(=O)[C@H](Cc1ccccc1)NC(=O)[C@H](CCC(=O)O)NC(=O)[C@@H](N)Cc1ccc(O)cc1)C(=O)N[C@@H](Cc1c[nH]c2ccccc12)C(=O)NCC(=O)N1CCC[C@H]1C(=O)N[C@@H](CCCNC(=N)N)C(=O)N[C@@H](C)C(=O)O | 0.249 µM | IC50 ([2]; B*4402): 2.35 µM |
| HEQCAAGCT | – | IC50 ([2]; read-out: B*4402): 19 µM; IC50 ([3]; read-out: B*4001): 42.2 µM |

Source: patent US20060079453A1, “Hla binding peptides and their uses” (priority 2002, published 2006)
